The values below are quoted from earlier work in US10421768B2, “Method of biotransformation of benzopyrone compounds into the corresponding phosphate-conjugated derivatives” (National Taiwan University, priority 2016, dated 2019).

For the data set the following is noted: derivatives reported in several studies; cited from earlier work.

Take daidzein-7-O-triglucoside: the “water solubility relative to aglyconic form of isoflavones” value is recorded as “higher water solubility”.
